## Ab-14 heavy chain CDR variants: yeast mating affinities

Target: peptide PDVDLGDISGINAS, taken from heptad repeat 2 (HR2) of SARS-CoV-2 spike.

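The starting antibody came from a phage panning campaign against this peptide. These sequences belong to a second round, designed from the earlier measurements on random variants of the parent. Several design methods are mixed in this list. The scFvs were displayed on barcoded MATa yeast, the peptide on MATalpha yeast. The frequency of each diploid, read from paired DNA barcodes, reflects how well the two displayed proteins bind. Each replicate has its own calibration line, from reference interactions of the BCL2 family. Mating was done six times.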

The variants keep the light chain, the linker and the frameworks of Ab-14 (scFv order VH, three GGGGS repeats, VL).
VH: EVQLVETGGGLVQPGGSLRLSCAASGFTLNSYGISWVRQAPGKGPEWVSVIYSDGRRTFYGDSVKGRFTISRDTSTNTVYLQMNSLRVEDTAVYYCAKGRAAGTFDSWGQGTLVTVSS
VL: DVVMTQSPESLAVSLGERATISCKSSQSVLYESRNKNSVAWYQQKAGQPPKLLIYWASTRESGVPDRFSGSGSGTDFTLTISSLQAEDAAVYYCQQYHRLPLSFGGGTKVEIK

The parent's heavy chain CDRs are GFTLNSYGIS, VIYSDGRRTFYGDSVK, GRAAGTFDS; each variant's own CDRs replace them letter for letter. This list holds designs with more than six substitutions. Values are apparent Kd, the geometric mean of the replicates that gave a signal; lower means stronger binding. "no signal" marks a missing value. The strain was present, yet no cells mated with the target were sequenced in any replicate, which points to weak or no binding. Nonspecific signal, from three strains lacking the peptide, appeared in 1% of pairings of all heavy chain designs, centred on 120 nM (5% of these signals below 7.0 nM); values are not corrected for it.

* GFDLNEYGIS, VIYADGRRTFYADNVK, GEVAGTFDQ -> 400 pM (6 of 6 replicates)
* GFDLDEYGIS, VIYADGQRTAYADDVK, GNVAGTFDV -> 180 pM (6 of 6 replicates)
* GFDLDEYGIS, VIYADGRRTFYADSVK, GQLAGTFDA -> 280 pM (6 of 6 replicates)
* GMDLNEYGIS, VIYADGLRTAYIDEVK, GKGSVIIGH -> no signal (0 of 6 replicates)
* GFDLNEYGIS, VIYADGMRSAYADSVK, GNNAGTFDV -> 300 pM (6 of 6 replicates)
* GFDLNEYGIS, VIYADGRRTAYADSVK, GTNAGTFDI -> 130 nM (1 of 6 replicates)
* GFDLDEYGIS, VIYADGMRTFYADSVK, GENAGTFDI -> 2.2 nM (6 of 6 replicates)
* GFILDEYGIS, VIYADGERTMYSNRVK, GNEAGTFDF -> 7.9 nM (5 of 6 replicates)
* GFDLNEYGIS, VIYADGKRTAYIDSVK, GENAGTFDM -> 180 pM (6 of 6 replicates)
* GFDLNEYGIS, VIYADGVRQAYADSVK, GNTAGTFDV -> 390 pM (6 of 6 replicates)
* GFDLNEFGIS, VIYADGLQTFYTDNVK, GGNQGTFVI -> no signal (0 of 6 replicates)
* GNNLDEYGIS, VIYADGQRSAYAQDVK, GETGDNAFV -> no signal (0 of 6 replicates)
* GFDLNEYGIS, VIYADGRRTAYSDSVK, GNTAGTFDQ -> 360 pM (6 of 6 replicates)
* GFDINEYGIS, VIYADGRRTFYADSVK, GGNAGTFDV -> 370 pM (6 of 6 replicates)
* GFDLNEYGIS, VIYADGMRTYYADDVK, GENAGTFDT -> 800 pM (6 of 6 replicates)
* GFDLNEYGIS, VIYADGVRTAYSDDVK, GENAGTFDV -> 2.2 nM (6 of 6 replicates)
* GFDLNEYGIS, VIYADGMRTFYADSVK, GQLAGTFDS -> 430 pM (6 of 6 replicates)
* GFDLNEYGIS, VIYADGVRTYYADSVK, GNEAGTFDV -> 78 pM (6 of 6 replicates)
* GFDLNEYGIS, VIYADGMRTAYSDSVK, GKNAGTFDL -> 310 pM (6 of 6 replicates)
* GFDLDEYGIS, VIYADGKRTAYSDSVK, GNVAGTFDV -> 370 pM (6 of 6 replicates)
* GFNIDEYGVS, VIYADGRRQYYADDVK, GHNLVMALV -> no signal (0 of 6 replicates)
* GFDLDEYGIS, VIYADGMRTAYADSVK, GENAGTFVQ -> 220 pM (6 of 6 replicates)
* GFSLDEMGIS, VIYADGKRMFYQDNVK, GVNSVTFNV -> no signal (0 of 6 replicates)
* GFDLNEYGIS, VIYADGRRTFYDDSVK, GESAGTFDQ -> 2.0 nM (6 of 6 replicates)
* GFDLNEYGIS, VIYADGMRTFYADSVK, GNVAGTFDQ -> 290 pM (6 of 6 replicates)
* GFDLDEYGIS, VIYADGMRTAYTDSVK, GETAGTFDI -> 870 pM (6 of 6 replicates)
* GFDLDEYGIS, VIYADGSRVAILESVK, GKIAGTFDT -> 1.7 nM (6 of 6 replicates)
* GFDLDEYGIS, VIYADGKRTAYADSVK, GSNAGTFDL -> 730 pM (6 of 6 replicates)
* GFDLNEYGIS, VIYADGMRTAYTDSVK, GNTAGTFDM -> 370 pM (6 of 6 replicates)
* GLTLNQYGRS, VIYSDGWRTFYSDSVK, GAAAGFVDS -> no signal (0 of 6 replicates)
* GFDLSEYGIS, VIYADGRRASYTDAVK, GEVEGMLDV -> no signal (0 of 6 replicates)
* GFNLDEYGIS, VIYADGTRRYYADSVK, GDYVYVNST -> no signal (0 of 6 replicates)
* GFDLEEMGIS, VIYADGARKVYTNSVK, GGFGGQMDV -> no signal (0 of 6 replicates)
* GFDLNEYGIS, VIYADGMRTVYADSVK, GTNAGTFDM -> 400 pM (6 of 6 replicates)
* GFDLNEYGIS, VIYADGQRTAYVDSVK, GNVAGTFDT -> 300 pM (6 of 6 replicates)
* GFDLTEYGIS, VIYADGRRTEYSNDVK, GQVAGHFLD -> no signal (0 of 6 replicates)
* GFDLNEYGIS, VIYADGMRTFYDDSVK, GQLAGTFDM -> 1.1 nM (6 of 6 replicates)
* GFDLNEYGIS, VIYADGQRTFYSDSVK, GQTAGTFDE -> 310 pM (6 of 6 replicates)
* GMSLMEYGIS, VIYADGRRTAYTDSFK, GGSNKDTFV -> no signal (0 of 6 replicates)
* GFDLNEYGIS, VIYADGKRTFYSDSVK, GNAGGTFDM -> 670 pM (6 of 6 replicates)
* GFDLNEYGIS, VIYADGRRTFYSDSVK, GTTGGTFDM -> 570 pM (6 of 6 replicates)
* GFDLEDYGIS, VIYADGMRTAYADSVK, GQNAGTFDV -> 1.3 nM (6 of 6 replicates)
* GFDLNEYGIS, VIYADGMRTAYSDDVK, GEVAGTFDT -> 380 pM (6 of 6 replicates)
* GFDLNEYGIS, VIYADGRRTFYADSVK, GDVAGTFIQ -> 520 pM (6 of 6 replicates)
* GFDLNEYGIS, VIYADGRRTFYADSVK, GTFAGTFDV -> 260 pM (6 of 6 replicates)
* GFSLNEYGIS, VIYADGMRTRYAQNFK, GYNSSDLTV -> 81 nM (1 of 6 replicates)
* GFDLNEYGIS, VIYADGRRTFYADSVK, GNTAGTFLT -> 380 pM (6 of 6 replicates)
* GFDLEEYGIS, VIYADGMRTFYSDSVK, GENAGTFDI -> 790 pM (6 of 6 replicates)
* GFDLDEYGIS, VIYADGMRTAYADSVK, GGNAGTFDM -> 1.9 nM (6 of 6 replicates)
* GFDLDEYGIS, VIYADGRRTAYVDSVK, GNNAGTFDV -> 810 pM (6 of 6 replicates)

From the list, the first 3 with no signal in any replicate:

- GMDLNEYGIS, VIYADGLRTAYIDEVK, GKGSVIIGH = no signal (0 of 6 replicates)
- GFDLNEFGIS, VIYADGLQTFYTDNVK, GGNQGTFVI = no signal (0 of 6 replicates)
- GNNLDEYGIS, VIYADGQRSAYAQDVK, GETGDNAFV = no signal (0 of 6 replicates)

In the paper, a design with two or fewer of six values counts as a poor binder. The parent sequence was in this pool as ten entries: three were never detected, three once, and four in most replicates, with averages from 2.2 nM to 240 nM. Values of this round are not directly comparable with the first-round values of the same sequences.

Source: Li et al. 2023 (doi:10.1038/s41467-023-39022-2), MIT Lincoln Laboratory and A-Alpha Bio; data file from the FLAb repository.